In the assay the target is TLR4 (Homo sapiens, UniProt O00206). Description: HEK-Blue hTLR4 NF-kB/SEAP reporter dose-response.

The chains behind the UniProt entries cited, without tags or fusion partners. Residues count along the entry.
UniProt O00206, 24-839 limits assumed: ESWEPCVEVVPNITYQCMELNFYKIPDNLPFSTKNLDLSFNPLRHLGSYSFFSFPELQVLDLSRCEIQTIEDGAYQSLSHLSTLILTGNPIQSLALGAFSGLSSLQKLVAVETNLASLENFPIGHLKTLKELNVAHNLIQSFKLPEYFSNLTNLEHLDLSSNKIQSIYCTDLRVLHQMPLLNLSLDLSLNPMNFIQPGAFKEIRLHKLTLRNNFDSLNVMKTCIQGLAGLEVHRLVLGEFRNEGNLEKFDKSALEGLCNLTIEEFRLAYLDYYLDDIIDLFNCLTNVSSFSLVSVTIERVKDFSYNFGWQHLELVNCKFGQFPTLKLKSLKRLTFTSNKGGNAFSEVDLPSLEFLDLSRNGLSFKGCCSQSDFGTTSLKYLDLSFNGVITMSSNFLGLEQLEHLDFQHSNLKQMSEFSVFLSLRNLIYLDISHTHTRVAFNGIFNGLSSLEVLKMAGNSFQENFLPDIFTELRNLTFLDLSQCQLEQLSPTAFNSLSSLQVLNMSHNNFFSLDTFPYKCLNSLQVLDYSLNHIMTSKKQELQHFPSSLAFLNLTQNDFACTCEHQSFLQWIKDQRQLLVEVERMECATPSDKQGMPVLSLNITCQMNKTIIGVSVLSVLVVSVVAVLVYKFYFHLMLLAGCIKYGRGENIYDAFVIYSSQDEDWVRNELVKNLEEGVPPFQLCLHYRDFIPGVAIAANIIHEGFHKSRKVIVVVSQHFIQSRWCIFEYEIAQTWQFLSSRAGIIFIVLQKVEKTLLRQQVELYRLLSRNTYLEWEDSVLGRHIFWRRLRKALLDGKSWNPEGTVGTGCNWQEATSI
UniProt Q9Y6Y9, 19-160 partner limits assumed: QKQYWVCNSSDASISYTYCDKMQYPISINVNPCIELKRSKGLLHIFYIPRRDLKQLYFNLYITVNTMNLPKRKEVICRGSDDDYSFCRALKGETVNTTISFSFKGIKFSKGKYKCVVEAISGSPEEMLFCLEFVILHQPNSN

Here are results for one compound from article PMC13224164.

Consider `O=C(CSc1nc2c([nH]c3ccccc32)c(=O)n1-c1ccccc1)NC1CCCCC1`, for which the EC50 came to 4.3 µM. This counts as single-digit micromolar.
